By UniProt entry, the sequences of proteins in these tests, tags left out. Where a name states a change or a piece, a line headed by the entry shows the natural chain unless it says otherwise. Residues count along the entry.
UniProt Q00959, 23-1464: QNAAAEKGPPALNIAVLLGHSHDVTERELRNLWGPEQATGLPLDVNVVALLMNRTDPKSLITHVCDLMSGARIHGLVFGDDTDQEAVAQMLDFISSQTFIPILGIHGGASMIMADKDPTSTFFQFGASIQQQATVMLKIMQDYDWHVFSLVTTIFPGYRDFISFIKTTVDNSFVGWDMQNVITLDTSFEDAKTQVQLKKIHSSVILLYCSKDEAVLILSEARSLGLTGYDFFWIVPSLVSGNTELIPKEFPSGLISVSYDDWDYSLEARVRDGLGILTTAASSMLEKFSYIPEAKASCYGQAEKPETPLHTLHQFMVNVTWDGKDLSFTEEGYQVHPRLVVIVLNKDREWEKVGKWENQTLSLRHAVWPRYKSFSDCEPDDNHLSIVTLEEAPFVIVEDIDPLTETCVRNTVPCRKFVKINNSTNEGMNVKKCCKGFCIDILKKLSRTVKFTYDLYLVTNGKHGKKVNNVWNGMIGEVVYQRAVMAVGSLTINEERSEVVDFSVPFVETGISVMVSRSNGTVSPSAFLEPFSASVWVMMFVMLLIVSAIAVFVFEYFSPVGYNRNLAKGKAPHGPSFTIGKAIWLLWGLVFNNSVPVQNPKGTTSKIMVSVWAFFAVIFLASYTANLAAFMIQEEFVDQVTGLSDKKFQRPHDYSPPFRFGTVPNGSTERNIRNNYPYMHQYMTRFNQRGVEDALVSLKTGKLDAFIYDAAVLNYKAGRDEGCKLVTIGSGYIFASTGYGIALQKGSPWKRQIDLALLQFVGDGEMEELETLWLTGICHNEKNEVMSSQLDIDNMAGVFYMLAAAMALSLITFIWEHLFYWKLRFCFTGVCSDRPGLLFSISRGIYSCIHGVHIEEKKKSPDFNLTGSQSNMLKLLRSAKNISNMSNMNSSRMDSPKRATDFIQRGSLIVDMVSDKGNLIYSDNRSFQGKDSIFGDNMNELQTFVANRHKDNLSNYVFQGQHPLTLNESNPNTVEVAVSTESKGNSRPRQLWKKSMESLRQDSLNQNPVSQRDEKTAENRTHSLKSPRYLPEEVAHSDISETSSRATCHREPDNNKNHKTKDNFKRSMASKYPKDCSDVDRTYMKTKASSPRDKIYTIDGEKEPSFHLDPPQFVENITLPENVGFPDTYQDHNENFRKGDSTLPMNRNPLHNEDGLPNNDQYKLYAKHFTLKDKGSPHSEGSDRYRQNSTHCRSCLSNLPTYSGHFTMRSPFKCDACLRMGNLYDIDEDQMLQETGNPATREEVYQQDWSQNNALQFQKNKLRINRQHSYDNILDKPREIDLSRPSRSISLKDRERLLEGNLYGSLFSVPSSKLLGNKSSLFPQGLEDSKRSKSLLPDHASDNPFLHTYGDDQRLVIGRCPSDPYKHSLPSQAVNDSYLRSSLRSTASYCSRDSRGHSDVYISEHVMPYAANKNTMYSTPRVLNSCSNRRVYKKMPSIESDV
UniProt Q00961: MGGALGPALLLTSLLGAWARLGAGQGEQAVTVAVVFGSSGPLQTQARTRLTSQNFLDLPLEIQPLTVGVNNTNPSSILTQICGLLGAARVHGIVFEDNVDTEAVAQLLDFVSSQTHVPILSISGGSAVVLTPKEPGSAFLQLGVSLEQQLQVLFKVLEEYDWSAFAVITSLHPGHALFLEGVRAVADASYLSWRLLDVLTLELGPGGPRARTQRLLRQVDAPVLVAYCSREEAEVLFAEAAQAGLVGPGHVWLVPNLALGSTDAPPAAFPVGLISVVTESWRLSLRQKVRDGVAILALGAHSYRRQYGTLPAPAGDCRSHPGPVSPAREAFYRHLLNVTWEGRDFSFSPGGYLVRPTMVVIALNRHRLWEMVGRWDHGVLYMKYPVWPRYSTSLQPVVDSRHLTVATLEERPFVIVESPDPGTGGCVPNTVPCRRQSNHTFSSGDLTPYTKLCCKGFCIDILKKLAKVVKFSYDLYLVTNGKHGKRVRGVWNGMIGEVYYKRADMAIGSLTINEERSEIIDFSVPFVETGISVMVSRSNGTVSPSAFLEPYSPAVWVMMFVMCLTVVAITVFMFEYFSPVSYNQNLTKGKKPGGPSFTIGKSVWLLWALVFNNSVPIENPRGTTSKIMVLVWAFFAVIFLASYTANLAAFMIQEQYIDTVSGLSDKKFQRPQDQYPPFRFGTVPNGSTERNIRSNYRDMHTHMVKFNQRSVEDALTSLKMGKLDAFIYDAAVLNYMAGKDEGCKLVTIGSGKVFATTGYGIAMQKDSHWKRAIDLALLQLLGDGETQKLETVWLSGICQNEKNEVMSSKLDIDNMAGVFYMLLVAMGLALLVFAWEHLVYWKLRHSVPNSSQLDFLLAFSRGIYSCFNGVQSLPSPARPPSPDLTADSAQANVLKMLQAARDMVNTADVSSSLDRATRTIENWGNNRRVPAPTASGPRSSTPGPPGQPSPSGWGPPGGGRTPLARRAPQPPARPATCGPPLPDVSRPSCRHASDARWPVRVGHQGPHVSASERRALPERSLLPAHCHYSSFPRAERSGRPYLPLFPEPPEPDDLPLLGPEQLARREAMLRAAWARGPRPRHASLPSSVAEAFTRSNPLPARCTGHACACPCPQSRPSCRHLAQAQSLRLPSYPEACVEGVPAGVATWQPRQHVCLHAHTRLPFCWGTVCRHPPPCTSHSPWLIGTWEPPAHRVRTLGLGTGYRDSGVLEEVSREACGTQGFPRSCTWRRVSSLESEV

According to publication PMC6090556 (Neuron, 2018):

Tests used:
GluN1/GluN2AC1/GluN2CC2 [1] = biological target: T1, GluN1/GluN2AC1/GluN2CC2 (Rattus norvegicus, UniProt P35439+Q00959+Q00961, V839F); conditions: 5 ms pulse of 1 mM glutamate, continuous 100 μM glycine, n=24
GluN1/GluN2AC1/GluN2CC2 [2] = biological target: T1, GluN1/GluN2AC1/GluN2CC2; assay: Two-electrode voltage-clamp recordings in Xenopus oocytes

Compound | glutamate deactivation time constant (GluN1/GluN2AC1/GluN2CC2 [1]) [ms] | GluN2AC1/GluN2CC2 fitted response in saturating Zn2+ as percent of control (GluN1/GluN2AC1/GluN2CC2 [2]; pH 6.8, mean ± SEM) | GluN2AC1/GluN2CC2 fitted response in saturating Zn2+ as percent of control (GluN1/GluN2AC1/GluN2CC2 [2]; pH 7.3, mean ± SEM) | Zn2+ inhibition at alkaline pH (GluN1/GluN2AC1/GluN2CC2 [2]; pH 8.4, glutamate and glycine 50 μM, −20 mV, up to 300 nM Zn2+, data not shown)
N[C@@H](CCC(=O)O)C(=O)O [Glutamate] | 301 ± 15 |  |  | 
[Zn+2] [Zn^2+] |  | 23±1.7 ^c % | 55±1.0 ^c % | did not show any inhibition

Marks after values point to notes of the source that are not given here.
